Target: T1, P2X purinoceptor 7 (Rattus norvegicus, UniProt Q64663)
T1 sequence (Q64663 whole entry): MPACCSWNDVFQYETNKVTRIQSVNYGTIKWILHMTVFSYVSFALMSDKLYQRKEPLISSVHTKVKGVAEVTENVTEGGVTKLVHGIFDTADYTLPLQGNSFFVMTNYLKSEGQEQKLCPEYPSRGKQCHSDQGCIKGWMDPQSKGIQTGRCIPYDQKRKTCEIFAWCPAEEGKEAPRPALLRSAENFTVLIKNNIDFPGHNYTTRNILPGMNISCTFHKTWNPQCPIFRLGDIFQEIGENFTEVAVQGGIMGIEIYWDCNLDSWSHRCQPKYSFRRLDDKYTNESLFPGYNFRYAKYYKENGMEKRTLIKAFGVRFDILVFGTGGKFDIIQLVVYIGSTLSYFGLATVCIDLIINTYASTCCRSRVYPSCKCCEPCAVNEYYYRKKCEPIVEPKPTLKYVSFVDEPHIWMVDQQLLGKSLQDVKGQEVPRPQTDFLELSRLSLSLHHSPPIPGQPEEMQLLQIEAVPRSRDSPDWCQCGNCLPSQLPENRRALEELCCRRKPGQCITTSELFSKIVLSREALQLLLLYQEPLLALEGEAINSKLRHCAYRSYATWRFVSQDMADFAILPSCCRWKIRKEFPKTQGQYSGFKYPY
Assay: Antagonist activity at rat P2X7 receptor assessed as inhibition of ATP-induced Ca2+ flux by FLIPR assay

IC50: 7.45 µM
SMILES: CC1c2nnc(-c3ccc(F)cc3)n2CCN1C(=O)c1cccc(C(F)(F)F)c1Cl (racemic)

From ChEMBL document CHEMBL3603800, “Novel methyl substituted 1-(5,6-dihydro-[1,2,4]triazolo[4,3-a]pyrazin-7(8H)-yl)methanones are P2X7 antagonists” (Bioorg Med Chem Lett, 2015)
